## Measured affinities in a library of Ab-14 light chain variants

Reference: Li et al. 2023, doi:10.1038/s41467-023-39022-2. File: FLAb, binding data.

Target peptide (SARS-CoV-2 spike, HR2 region): PDVDLGDISGINAS

Parent scFv Ab-14: VH joined to VL by a 15-residue (Gly4Ser)3 linker. Changes lie in the light chain CDRs alone.
VH: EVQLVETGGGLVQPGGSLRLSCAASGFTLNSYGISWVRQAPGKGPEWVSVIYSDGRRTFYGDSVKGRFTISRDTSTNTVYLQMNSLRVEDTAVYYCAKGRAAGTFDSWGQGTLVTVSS
VL: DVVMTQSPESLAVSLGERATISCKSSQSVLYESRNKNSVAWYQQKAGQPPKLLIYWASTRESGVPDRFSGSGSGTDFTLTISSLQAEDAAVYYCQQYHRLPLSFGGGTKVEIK

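This is the validation round: designs drawn from the data on random variants, tested in the same kind of assay. Their group label is 14L_GP_Gen (GP: Gaussian process model; Gen: genetic algorithm; a sequence that several methods proposed may carry one label only). AlphaSeq pools MATa yeast showing the antibodies with MATalpha yeast showing the peptide. The frequency of each diploid, read from paired DNA barcodes, reflects how well the two displayed proteins bind. The ratio of observed to expected reads was calibrated, replicate by replicate, on BCL2-family standards whose Kd was known from biolayer interferometry. Each pool was mated in six replicate cultures.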

Variants are written as CDR1, CDR2 and CDR3 of the light chain (limits as in the source). Parent: KSSQSVLYESRNKNSVA, WASTRES, QQYHRLPLS.
Values are log10 of the apparent Kd in nM; lower means stronger binding.
The mean shown is taken over the replicates in which the pair was detected.

| # | CDR-L1 | CDR-L2 | CDR-L3 | replicates, log10 nM | mean, log10 nM | empty controls |
|---|---|---|---|---|---|---|
| 1 | KLSQSWGYESRNKNSVA | HASTRES | QQYHRLPLS | 0.26 0.03 -0.07 -0.03 0.11 0.02 | 0.05 | 1 of 18 (2.45) |
| 2 | KLSQSSLYESRNKNSVA | NASQRES | QQYHRLPLS | -0.08 -0.10 -0.25 -0.31 -0.21 -0.09 | -0.17 | 0 of 18 |
| 3 | KVSQSVLYESRNKNSVA | NASTRMS | QQYHRLPLS | -0.02 0.05 -0.20 -0.24 -0.32 -0.07 | -0.13 | 1 of 18 (2.96) |
| 4 | KLSQSVLYESRNKNSVA | HASTRVS | QQYHRLPLS | 0.01 0.10 -0.01 -0.11 0.04 0.25 | 0.05 | 2 of 18 (2.44) |
| 5 | KLPQSMLYESRNKNSVA | NASQRLS | QQYHRLPLS | -0.05 -0.16 0.02 -0.09 -0.23 0.13 | -0.06 | 1 of 18 (2.14) |
| 6 | KVSQSVLYEDRNSNSVA | NASQRES | QQYHRLPLS | -0.04 0.47 0.07 0.12 -0.14 0.17 | 0.11 | 1 of 18 (2.34) |
| 7 | KVEQSQLYESRNKNSVA | NASTRES | QQYHRLPLS | 0.36 0.31 0.28 0.60 0.29 0.77 | 0.43 | 0 of 18 |
| 8 | KLQQSYLYESRNKNSVA | NASTRMS | QQYHRLPLS | 0.71 1.01 0.87 0.78 0.96 1.27 | 0.93 | 2 of 18 (3.12) |
| 9 | KLQQSVEYESRNKNSVA | NASTRES | QQYHRLPLS | 0.06 -0.14 -0.39 -0.50 -0.32 -0.20 | -0.25 | 0 of 18 |
| 10 | KVSQSYLYESRNKNAVA | EASTRES | QQYHRLPLS | -0.10 -0.19 -0.27 -0.50 -0.28 -0.17 | -0.25 | 0 of 18 |
| 11 | KVQQSVLYESRNKNAVA | NASTRES | QQYHRLPLS | -0.05 -0.26 -0.34 -0.50 -0.32 -0.29 | -0.29 | 3 of 18 (3.09) |
| 12 | KLEGSWLYESRNKNSVA | NASTRES | QQYHRLPLS | 0.35 0.33 -0.29 0.04 0.02 0.22 | 0.11 | 0 of 18 |
| 13 | KLSQSQLYESRNKNSVA | NASYRLS | QQYHRLPLS | -0.40 0.55 -0.59 -0.21 -0.33 -0.21 | -0.20 | 0 of 18 |
| 14 | KLSQSDLYESRNKNSVA | NASTRES | QAYHRLPLS | 0.34 0.13 0.20 0.28 0.02 0.35 | 0.22 | 3 of 18 (2.56) |
| 15 | KLQQSELYESRNKNSVA | EASTREE | QQYHRLPLS | -0.07 -0.17 -0.32 -0.33 -0.25 -0.05 | -0.20 | 1 of 18 (2.40) |
| 16 | KLQQSFLYESRNKNSVA | NASTRLS | QQYHRLPLS | 0.13 -0.12 -0.04 -0.17 -0.15 0.00 | -0.06 | 0 of 18 |
| 17 | KLSQSFLYESRNKNSVA | NASKRES | QQYHRLPLS | 0.21 0.32 0.35 0.27 0.68 0.44 | 0.38 | 0 of 18 |
| 18 | KVSQSYLYESRNKNAVA | NASTRES | QQYHRLPLS | -0.14 -0.55 -0.59 -0.52 -0.80 -0.41 | -0.50 | 2 of 18 (2.66) |
| 19 | KLYQSHLYESRMKNSVA | NASTRES | QQYHRLPLS | 0.11 0.03 0.10 -0.13 0.13 0.15 | 0.07 | 2 of 18 (2.49) |
| 20 | KLAQSWLYESRNKNSVA | NASTRES | QQYHRLPLS | -0.22 -0.17 -0.42 -0.32 -0.52 -0.24 | -0.31 | 0 of 18 |
| 21 | KFSQSVLYESRNQNSVA | EASTRES | QQYHRLPLS | 0.12 -0.11 0.05 -0.33 -0.30 0.14 | -0.07 | 3 of 18 (2.44) |
| 22 | KLSQSYLYESRNKNSVA | NASTRED | QQYHRLPLS | -0.22 -0.17 -0.36 -0.35 -0.37 -0.24 | -0.28 | 0 of 18 |
| 23 | KVQQSNLYESRNKNSVA | NASQRES | QQYHRLPLS | -0.22 -0.33 -0.03 -0.44 -0.40 0.13 | -0.21 | 3 of 18 (3.35) |
| 24 | KLEQSQLYESRNKNSVA | NASTRLS | QQYHRLPLS | -0.10 -0.26 -0.23 -0.43 -0.33 -0.21 | -0.26 | 3 of 18 (2.91) |
| 25 | KLSQMQLYESRNKNSVA | NASTRES | QQYHRLPLS | -0.73 -0.75 -0.61 -0.90 -0.68 -0.53 | -0.70 | 0 of 18 |
| 26 | KLYQSFLYESRNKNSVA | NASTRES | QQYHRLPLS | 0.21 0.17 0.02 -0.05 0.01 0.09 | 0.08 | 0 of 18 |
| 27 | KLSQSELYESRNKNSVA | NASTRSS | QQYHRLPLS | -0.43 -0.14 -0.49 -0.80 -0.48 -0.48 | -0.47 | 0 of 18 |
| 28 | KLSGSMLYESRNKNSVA | SASTRES | QQYHRLPLS | -0.07 0.01 -0.09 -0.06 -0.10 0.02 | -0.05 | 3 of 18 (2.75) |
| 29 | KLSQSTLYESRNKNSVA | HASQRES | QQYHRLPLS | -0.34 -0.41 -0.39 -0.47 -0.39 -0.30 | -0.38 | 1 of 18 (3.71) |
| 30 | KLSQSFLYESRNKNAVA | EASTRES | QQYHRLPLS | -0.41 -0.67 -0.50 -0.67 -0.71 -0.66 | -0.61 | 0 of 18 |
| 31 | KLSQSWLYESRNPNSVA | NASQRES | QQYHRLPLS | 0.23 0.02 -0.07 -0.26 -0.01 0.39 | 0.05 | 0 of 18 |
| 32 | KLQQSVLYESRMKNSVA | GASTRES | QQYHRLPLS | -0.31 -0.35 -0.52 -0.63 -0.74 -0.64 | -0.53 | 0 of 18 |
| 33 | KLSQSEPYESRNKNSVA | NASTRMS | QQYHRLPLS | 0.59 0.29 -0.06 0.37 0.37 0.34 | 0.32 | 0 of 18 |
| 34 | KVEQSNLYESRNKNSVA | NASTRES | QQYHRLPLS | 0.32 0.05 -0.04 0.08 0.07 0.07 | 0.09 | 3 of 18 (2.24) |
| 35 | KLEQSQLYESRNKNSVA | NASTRYS | QQYHRLPLS | 0.39 -0.03 -0.02 -0.04 0.01 0.17 | 0.08 | 1 of 18 (1.90) |
| 36 | KLSQQYLYESRNKNSVA | NASTRES | QQYHRLPLS | 0.48 0.17 0.43 0.50 0.24 0.35 | 0.36 | 2 of 18 (2.47) |
| 37 | KLPQSVGYESRNKNSVA | HASTRES | QQYHRLPLS | 0.00 0.13 -0.09 -0.25 -0.21 0.04 | -0.06 | 1 of 18 (2.11) |
| 38 | KMSQSVPYESRNKNSVA | DASTRES | QQYHRLPLS | -0.18 -0.15 -0.21 -0.37 -0.34 -0.36 | -0.27 | 1 of 18 (3.36) |
| 39 | KFSQSWLYESRNKNAVA | NASQRES | QQYHRLPLS | -0.08 -0.21 -0.25 -0.30 -0.37 -0.10 | -0.22 | 0 of 18 |
| 40 | HLSQSDLYESRNKNSVA | NASTRES | QQYHRLPLS | 0.05 -0.17 -0.05 0.06 -0.13 0.23 | 0.00 | 1 of 18 (2.79) |
| 41 | HLSQSWLYESRNKNSVA | NASTRLS | QQYHRLPLS | 0.18 0.04 0.09 -0.24 -0.01 -0.02 | 0.01 | 1 of 18 (2.51) |
| 42 | KVSQSVLYESRNKNSVA | DASTRED | QQYHRLPLS | -0.30 -0.45 -0.36 -0.56 -0.47 -0.28 | -0.40 | 2 of 18 (2.60) |
| 43 | KVSQSVLYESRDKNAVA | DASTRES | QQYHRLPLS | -0.17 -0.36 -0.18 -0.35 -0.46 -0.14 | -0.28 | 1 of 18 (1.73) |
| 44 | KLSQSVPYESRNKNSVA | NASTRMQ | QQYHRLPLS | 0.52 0.57 0.37 0.60 0.48 0.70 | 0.54 | 1 of 18 (2.56) |
| 45 | KLSQSDLYESRNKNSVA | EASTRED | QQYHRLPLS | 0.15 0.13 -0.03 -0.19 -0.14 0.08 | 0.00 | 0 of 18 |
| 46 | KVSQSCLYESRNKNSVA | NASTRES | QQYHRLPLS | 0.00 0.53 0.52 0.25 -0.03 0.52 | 0.30 | 0 of 18 |
| 47 | KLMQSWLYESRNKNNVA | NASQRES | QQYHRLPLS | -0.24 -0.47 -0.60 -0.63 -0.63 -0.48 | -0.51 | 1 of 18 (3.02) |
| 48 | KLSQSVLMESRNPNSVA | NASTRES | QQYHRLPLS | -0.04 -0.33 -0.27 -0.32 -0.44 -0.22 | -0.27 | 1 of 18 (2.77) |
| 49 | KLSQSWLYESRNPNSVA | NASTRMS | QQYHRLPLS | -0.17 -0.18 -0.33 -0.25 -0.46 -0.18 | -0.26 | 3 of 18 (2.88) |
| 50 | KVMQSHLYESRNKNSVA | NASQRES | QQYHRLPLS | 0.94 0.49 0.44 0.58 0.86 0.98 | 0.71 | 0 of 18 |
| 51 | KVQQSVLYESRNKNSVA | EASTRCS | QQYHRLPLS | 0.00 -0.01 -0.05 -0.13 -0.14 0.01 | -0.05 | 1 of 18 (2.52) |

The authors' rule: three or more of the six replicates give a measured affinity, fewer mean a poor binder.
Empty control strains, which show no peptide, gave a signal in 4% of pairings with all light chain designs; the median was 2.64 and 95% of these signals were weaker than 1.59. No background was subtracted. For each scFv, signals with the empty controls are counted beside the result, with their mean in brackets.
Values of this round are not directly comparable with the first-round values of the same sequences.